Series [1] can be described thus: Dissolution in physiological saline. The series is classed as physicochemical.
For series [2] the following is noted: serum of B-16 melanoma-transplanted mouse, 37° C.

Take “carboxymethylated dextran-7-Gly-Gly-Phe-Gly-paclitaxel [compound (35)]”: the “dissolution ratio in terms of paclitaxel” value in series [1] was 7.4 mg/mL. The “release of paclitaxel as compared to that from compound (33)” value in series [2] was “slow”.

With PEG-2′-Gly-paclitaxel [compound (5)], the “dissolution ratio in terms of paclitaxel” value in series [1] came to 3.6 mg/mL.

Regarding PEG-2′-Ile-paclitaxel [compound (17)], the “dissolution ratio in terms of paclitaxel” value in series [1] came out at 2.8 mg/mL.

On to “carboxymethylated dextran-2′-Gly-Gly-Phe-Gly-paclitaxel [compound (33)]”, for which the “dissolution ratio in terms of paclitaxel” value in series [1] stood at 3.7 mg/mL.

Regarding “carboxymethylated dextran-2′-Ile-paclitaxel [compound (15)]”, the “dissolution ratio in terms of paclitaxel” value in series [1] stood at 1.6 mg/mL.

On to “carboxymethylated dextran-2′-Gly-paclitaxel [compound (3)]”, for which the “dissolution ratio in terms of paclitaxel” value in series [1] is 3.7 mg/mL.

(Values after patent US6458347B1, “Drug complex” (Asahi Kasei Kabushiki Kaisha, priority 1996, dated 2002).)
